Assay results reported in patent US4826847A, “Beta-blocking oxindole derivatives” (Boehringer Mannheim GmbH, priority 1984, dated 1989).

System: livers
Test: denitration rate relative to isosorbide-5-mononitrate (Vrel): NO2 freed in perfusate of re-perfused rat livers
Conditions: rat liver perfusion 4 min, 5×10^-5 M/l, NO2 determined in the perfusate; high values = fast denitration

O=[N+]([O-])O[C@H]1CO[C@H]2[C@@H]1OC[C@H]2O[N+](=O)[O-]
Vrel (denitration rate in relation to isosorbide-5-mononitrate): 17.5
